Results reported in PMC10390107, “The 4-(dimethylaminoalkyl)piperazine inhibitors of α-glucosidase: allosteric enzyme inhibition and identification of interacting chemical groups” (Turkish Journal of Chemistry, 2022).

Amino acid sequences for entries named in this document (tags omitted). A change or cut given only in a name is not applied to a line headed by its entry.
UniProt P53341: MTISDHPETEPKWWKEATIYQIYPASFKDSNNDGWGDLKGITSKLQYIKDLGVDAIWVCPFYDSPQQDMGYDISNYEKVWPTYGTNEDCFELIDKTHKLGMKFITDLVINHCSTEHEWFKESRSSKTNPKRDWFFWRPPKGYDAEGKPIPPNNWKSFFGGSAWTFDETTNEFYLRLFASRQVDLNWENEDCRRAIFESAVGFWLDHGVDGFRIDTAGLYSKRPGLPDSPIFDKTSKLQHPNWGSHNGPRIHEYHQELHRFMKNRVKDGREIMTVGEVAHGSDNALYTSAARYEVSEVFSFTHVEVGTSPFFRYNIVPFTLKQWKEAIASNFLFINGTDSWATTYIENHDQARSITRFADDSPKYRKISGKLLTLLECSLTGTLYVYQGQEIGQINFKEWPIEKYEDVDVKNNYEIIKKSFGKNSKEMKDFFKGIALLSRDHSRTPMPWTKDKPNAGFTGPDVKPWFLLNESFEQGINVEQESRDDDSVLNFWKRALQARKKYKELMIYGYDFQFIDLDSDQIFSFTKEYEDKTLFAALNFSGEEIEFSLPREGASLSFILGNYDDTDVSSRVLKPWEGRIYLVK

Target: T1, α-glucosidase (EC 3.2.1.20) from Saccharomyces cerevisiae (Saccharomyces cerevisiae, UniProt P53341)
T1 construct: purchased Sigma Chemical Co., St. Louis, USA
Test: biochemical
Type: biochemical
Conditions: not given
Experimental: All in vitro α-glucosidase inhibition assays were performed in a 96-well microplate format. The α-glucosidase inhibition assay reported elsewhere was customized to suit the experimental needs of the current work. The assay mixture contained 50 mM sodium phosphate buffer (pH 6.8), 20 mU of α-glucosidase (EC 3.2.1.20) from Saccharomyces cerevisiae (Sigma Chemical Co., St. Louis, USA), and 1.0 mM of p-nitrophenyl-α-D-glucopyranoside (PNP-G) substrate. All target compounds were dissolved in DMSO with the assay mixture containing DMSO at a final concentration of 3%. All compounds were first incubated with the enzyme at 37 °C for 15 min followed by commencement of the enzyme reaction by adding the substrate. The reaction was continuously monitored at 400 nm in SpectraMax Plus 384® microplate reader (Molecular Devices, CA, USA). […] All assays were performed as four individual experiments out of which the values of mean and standard error of mean (SEM) were calculated.
The enzyme kinetics assay procedure was essentially the same as mentioned above except that it was specifically designed for the kinetic work. The experiments included the addition of a range of target compound concentrations and that of the substrate (0.25–2.0 mM). In all experiments, only the linear portion of the enzyme reaction curves was selected for calculating initial velocities in the presence and absence of the target compounds. The type of inhibition was calculated from the Lineweaver-Burk plots which was further confirmed by the Dixon plot using Grafit 7.0.3 software (Erithacus Software Ltd., Staines, UK). The Ki values were also calculated from their respective Dixon plots. All kinetic experiments were conducted in quadruplicate from which mean Ki values and the SEM were calculated.

Structure (SMILES)	Ki
CN(C)CCCN1CCN(C(=S)SCC(=O)c2ccc(O)c(O)c2)CC1 [PC7]	21.3 ± 0.51 µM
CN(C)CCCN1CCN(C(=S)SCCC(=O)c2ccc(F)cc2)CC1 [PC4]	19.4 ± 0.42 µM
CN(C)CCCN1CCN(C(=S)SCC(=O)c2ccc(Br)cc2)CC1 [PC8]	29.4 ± 0.6 µM
CN(C)CCCN1CCN(C(=S)SCC(=O)c2ccc(Cl)cc2Cl)CC1 [PC2]	12.7 ± 0.34 µM
CN(C)CCCN1CCN(C(=S)SCC(=O)c2ccc(F)cc2F)CC1 [PC3]	19.3 ± 0.51 µM
CN(C)CCCN1CCN(C(=S)SCC(=O)c2ccc(F)cc2)CC1 [PC5]	19.8 ± 0.51 µM
CN(C)CCCN1CCN(C(=S)SCCCC(=O)c2ccccc2)CC1 [PC6]	20.9 ± 0.28 µM

Same assay, conditions: comparison of Ki values

Structure (SMILES)	fold less activity than PC1
CN(C)CCCN1CCN(C(=S)SCC(=O)c2ccc(Cl)cc2Cl)CC1 [PC2]	2 fold
